Test system: Brassica rapa subsp. oleifera
Assay: Herbicidal activity against Brassica rapa subsp. oleifera assessed as growth inhibition at 1.5 kg/ha relative to control

COP(=S)(NN1C(=O)CS/C1=N/[C@@H]1O[C@H](COC(C)=O)[C@@H](OC(C)=O)[C@H](OC(C)=O)[C@H]1OC(C)=O)c1ccccc1 (stereo partly specified)
growth inhibition (GI): 62.7%
